In the library only some 2.2% were active in any assay of this set; here they are far more common.
Nrf2 ARE act – Nrf2 pathway activation | AREc32 ARE-luciferase reporter (MCF7-derived line), luminescence, 24 h | Potency, µM (titrated, usually from 46.1 µM), hits mostly activators | 410,000 compounds, 0.31% hits; note: nearly all actives have a fitted effect of over 65% in size
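Luciferase luminescence (Steady-Glo, 30 min at room temperature) served as the read-out of ARE activation in AREc32 cells treated with compounds for 24 hr at 37 deg C.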
A549 tox-1 – A549 cytotoxicity, counter-screen for Nrf2 inhibitors; A549 ARE-Fluc cells, CellTiter-Fluor viability, 18-24 h; Potency, µM (series often up to 46 µM), usual class: inhibitors; 390,000 compounds, 0.16% hits
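A549 ARE_Fluc cells in 5% FBS OPTI-MEM were exposed to compounds in concentration-response for 18-24 h at 37 deg C. Viability was read by CellTiter-Fluor fluorescence (Ex 405/Em 525) after 30 min, before the luciferase read.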
GALK inhibitor – blocks human galactokinase activity | P51570 | Purified GALK, Kinase-Glo residual ATP luminescence | Potency, µM (highest dose often 57.5 µM), most hits filed as inhibitors | 270,000 compounds, 0.007% hits
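The enzyme phosphorylates galactose (100 uM) using ATP (35 uM); inhibition is detected as higher residual ATP, quantified by bioluminescence after 1 h reaction at room temperature, pH 8.0.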
PI4K2A inh – PI4K2A (human) kinase inhibition. Q9BTU6. purified PI4K2A, ADP-Glo luminescence, 1 h; stronger effect = lower value. activity change, negative = inhibition, % at 76.9 µM. 420,000 compounds, 0.13% hits. AID 1346378; in the data active = activity change below about -50%; inconclusive = mostly about -30% to -49%
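ADP-Glo luminescence measured ADP generated by PI4K2A enzyme (4 ug/mL before mixing) with 1.2 mM PI substrate (pre-mix) and 300 microM ATP (pre-mix). Tris pH7.5 buffer with MgCl2, Triton X-100; 1 h reaction at ambient temperature.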
Nrf2 inh – inhibitors of Nrf2 signaling | 360,000 compounds, 2.1% hits | A549 ARE-Fluc reporter, luciferase luminescence, 18-24 h | Potency, µM (top dose mostly 46 µM), actives largely listed as inhibitors; note: nearly all actives have a fitted effect of over 60% in size
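Quantitative HTS in A549 cells stably bearing an antioxidant response element-firefly luciferase construct. Inhibition of Nrf2-driven transcription was scored by luminescence after 18-24 h of compound exposure at 37 °C.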
miR-21 reporter – miR-21 reporter, rising signal; HeLa miR-21 FLuc reporter, luciferase, 48 h; Potency, µM (titrated, usually from 38.3 µM); 340,000 tested, under 10 active; AID 2288; active = well fitted rising curve with a large enough effect; inconclusive = small, poorly fitted or top-dose-only effect; inactive = no such curve, though single readings can be large or run the other way;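 also: miR-21 action dims this reporter so a rising signal means less miR-21 action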
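HeLa cells endogenously expressing miR-21, stably carrying CMV-driven firefly luciferase with a downstream miR-21 binding site, 2000 cells/well. Titrations up to approximately 40 uM, 48 hours; luciferase luminescence read.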
FLuc counter 3 – blocks purified firefly luciferase in Nrf2 counterscreen; 1,400 compounds, 4% hits; purified firefly luciferase, luminescence inhibition; Potency, µM (highest dose often 57.5 µM), actives largely listed as inhibitors; shares compounds with Nrf2 inh; note: nearly all actives have a fitted effect of over 65% in size
A549 tox-2 – counter-screen for Nrf2 inhibitors: cytotoxicity in A549 ARE cells; shares compounds with Nrf2 inh; A549 ARE-Fluc cells, cytotoxicity counterscreen; Potency, µM (series often up to 46.1 µM), hits mostly inhibitors; 1,400 compounds, 2% hits; AID 720523;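 note: cells exposed to compounds for 18 to 24 hours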
ARE-Fluc inh – reduces Nrf2 ARE reporter signal in A549 cells; shares compounds with Nrf2 inh; A549 ARE-firefly luciferase reporter, luminescence; AID 720524; 1,400 compounds, 74% hits; Potency, µM (titrated, usually from 46.1 µM), usual class: inhibitors; note: nearly all actives have a fitted effect of over 65% in size
Large screens that a line does not name were inactive (follow-up assays come after a bar, where they were run). Unless noted, calls come from the whole dose curve; as a rule, active = well fitted curve in the direction sought with a large enough effect; inconclusive = small, poorly fitted or top-dose-only effect, or another doubt; inactive = no such curve, though single readings can be large; an effect the other way counts as inactive or inconclusive.

CCCCNS(=O)(=O)c1ccc(OCC(=O)N2CCN(Cc3ccc4c(c3)OCO4)CC2)cc1	A549 tox-1 inconclusive, Nrf2 inh 4.61µM | FLuc counter 3 inactive | A549 tox-2 inactive | ARE-Fluc inh inconclusive
O=C(COc1ccc(S(=O)(=O)N2CCOCC2)cc1)N1CCN(Cc2ccc3c(c2)OCO3)CC1	Nrf2 inh inconclusive
CCOC(=O)c1ccc(N2C(=O)c3n[nH]c(-c4cccs4)c3C2c2ccc(OC)cc2OC)cc1 (stereo unspecified)	Nrf2 inh inconclusive, miR-21 reporter inconclusive (no result: GALK inhibitor)
CC(C)(C)CC(C)(C)c1ccc(O)cc1	none (no result: Nrf2 ARE act, A549 tox-1, GALK inhibitor, Nrf2 inh, miR-21 reporter)
COc1cc(C[C@@H](C)N)c(OC)cc1I	Nrf2 inh inconclusive | FLuc counter 3 inactive | A549 tox-2 inactive | ARE-Fluc inh inactive
COc1cc(CC(C)N)cc(OC)c1OC (stereo unspecified)	none (no result: Nrf2 ARE act, A549 tox-1, GALK inhibitor, Nrf2 inh, miR-21 reporter)
CCN(CC)C(=O)c1ccc(NC(=O)c2cccc(S(=O)(=O)N3CCN(Cc4ccccc4)CC3)c2)cc1	A549 tox-1 inconclusive, Nrf2 inh 2.06µM (no result: GALK inhibitor, miR-21 reporter) | FLuc counter 3 inactive | A549 tox-2 inactive | ARE-Fluc inh 8.2µM
CCN(CC)C(=O)c1ccc(NC(=O)c2cc(S(=O)(=O)N3CCCCCC3)ccc2OC)cc1	Nrf2 inh inconclusive (no result: GALK inhibitor, miR-21 reporter)
COc1ccc(C(=O)Nc2ccc(-c3nc4ccccc4s3)c(Cl)c2)cc1Cl	none (no result: GALK inhibitor)
Cc1nn(-c2nccs2)c2c1C(=O)CC(C)(C)C2Br (stereo unspecified)	Nrf2 inh inconclusive (no result: GALK inhibitor, miR-21 reporter)
